Experimental data taken from ChEMBL document CHEMBL1132657, “CoMFA study of novel phenyl ring-substituted 3alpha-(diphenylmethoxy)tropane analogues at the dopamine transporter” (J Med Chem, 1999).

Protein sequences, listed by entry. Tags and fused reporters are not part of them.
UniProt P23977, whole entry: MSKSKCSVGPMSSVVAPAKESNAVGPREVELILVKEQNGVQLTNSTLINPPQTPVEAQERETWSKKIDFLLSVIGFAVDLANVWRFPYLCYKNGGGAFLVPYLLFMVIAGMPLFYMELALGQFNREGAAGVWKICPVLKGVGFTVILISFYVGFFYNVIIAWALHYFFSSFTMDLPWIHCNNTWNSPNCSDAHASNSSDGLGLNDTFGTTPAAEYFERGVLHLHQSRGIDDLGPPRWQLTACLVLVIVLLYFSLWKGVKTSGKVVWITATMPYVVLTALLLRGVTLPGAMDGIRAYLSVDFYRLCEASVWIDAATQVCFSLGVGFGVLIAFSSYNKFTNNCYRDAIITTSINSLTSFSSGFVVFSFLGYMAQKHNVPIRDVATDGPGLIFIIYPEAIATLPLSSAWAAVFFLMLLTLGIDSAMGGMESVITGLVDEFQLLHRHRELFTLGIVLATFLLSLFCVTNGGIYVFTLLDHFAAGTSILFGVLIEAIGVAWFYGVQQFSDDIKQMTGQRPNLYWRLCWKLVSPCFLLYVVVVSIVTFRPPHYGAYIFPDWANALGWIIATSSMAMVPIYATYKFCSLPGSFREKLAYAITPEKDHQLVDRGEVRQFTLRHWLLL

Biological target: Sodium-dependent dopamine transporter (Rattus norvegicus, UniProt P23977)
Assay: Displacement of [3H]WIN-35428 binding to the dopamine transporter in rat caudate putamen tissue.
Format: tissue-based

Work on CN1[C@@H]2CC[C@H]1C[C@@H](OC(c1ccc(F)cc1)c1cccc(F)c1)C2 (stereo partly specified) yielded a Ki of 23.3 nM.
